Assay results: article PMC4821887, “Identification of chemicals that mimic transcriptional changes associated with autism, brain aging and neurodegeneration” (Nature Communications, 2016)

Test system: mouse cortical neuron cultures
Assay: Live/dead cytotoxicity assay (NucBlue / SYTOX Green)

SMILES | % Dead cells (vehicle subtracted) (0.1 µM chemical) [%] | % Dead cells (vehicle subtracted) (1 µM chemical) [%] | % Dead cells (vehicle subtracted) (10 µM chemical) [%]
O=C1C2CC=CCC2C(=O)N1SC(Cl)(Cl)C(Cl)Cl (stereo not shown) | 0.2061 | -0.1989 | 35.235
CC(C)OP(=S)(OC(C)C)SCCNS(=O)(=O)c1ccccc1 | – | – | -0.8074
